Data from patent US9422297B2, “Tricyclic compounds having cytostatic and/or cytotoxic activity and methods of use thereof” (Duquesne University of the Holy Ghost, priority 2007, dated 2016).
Where two headings read alike, the source gives them in different places.

Sequences of proteins named here, by UniProt entry; tags and fusion partners are left off. A change or cut given only in a name is not applied to a line headed by its entry. Residues count along the entry.
UniProt P09619, 33-1106: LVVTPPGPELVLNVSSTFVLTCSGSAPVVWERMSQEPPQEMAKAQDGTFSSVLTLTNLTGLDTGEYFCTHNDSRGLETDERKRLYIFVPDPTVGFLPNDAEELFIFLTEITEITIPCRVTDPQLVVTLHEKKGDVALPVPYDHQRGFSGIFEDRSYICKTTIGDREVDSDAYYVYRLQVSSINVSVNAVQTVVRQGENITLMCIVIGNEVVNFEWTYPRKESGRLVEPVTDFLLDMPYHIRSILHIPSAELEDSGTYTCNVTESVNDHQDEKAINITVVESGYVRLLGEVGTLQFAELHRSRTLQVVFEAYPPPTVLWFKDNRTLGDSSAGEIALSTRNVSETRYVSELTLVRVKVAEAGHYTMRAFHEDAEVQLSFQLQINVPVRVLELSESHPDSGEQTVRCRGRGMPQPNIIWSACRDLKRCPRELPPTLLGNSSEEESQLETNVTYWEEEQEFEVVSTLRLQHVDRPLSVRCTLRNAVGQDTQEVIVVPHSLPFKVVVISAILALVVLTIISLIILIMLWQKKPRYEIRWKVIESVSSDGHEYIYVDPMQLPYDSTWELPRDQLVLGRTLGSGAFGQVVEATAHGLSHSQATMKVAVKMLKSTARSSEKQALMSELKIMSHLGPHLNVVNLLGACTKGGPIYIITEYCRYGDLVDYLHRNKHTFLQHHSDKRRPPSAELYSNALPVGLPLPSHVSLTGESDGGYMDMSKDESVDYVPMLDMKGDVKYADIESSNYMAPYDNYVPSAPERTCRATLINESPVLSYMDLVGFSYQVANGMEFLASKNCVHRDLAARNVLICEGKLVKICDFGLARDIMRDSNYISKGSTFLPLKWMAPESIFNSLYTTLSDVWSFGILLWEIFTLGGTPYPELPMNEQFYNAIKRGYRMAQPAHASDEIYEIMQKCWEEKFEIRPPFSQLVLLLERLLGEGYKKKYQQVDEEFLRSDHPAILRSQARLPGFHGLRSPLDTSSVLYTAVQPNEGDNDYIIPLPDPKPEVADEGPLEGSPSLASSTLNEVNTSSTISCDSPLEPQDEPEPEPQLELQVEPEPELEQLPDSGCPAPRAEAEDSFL
UniProt P0A884: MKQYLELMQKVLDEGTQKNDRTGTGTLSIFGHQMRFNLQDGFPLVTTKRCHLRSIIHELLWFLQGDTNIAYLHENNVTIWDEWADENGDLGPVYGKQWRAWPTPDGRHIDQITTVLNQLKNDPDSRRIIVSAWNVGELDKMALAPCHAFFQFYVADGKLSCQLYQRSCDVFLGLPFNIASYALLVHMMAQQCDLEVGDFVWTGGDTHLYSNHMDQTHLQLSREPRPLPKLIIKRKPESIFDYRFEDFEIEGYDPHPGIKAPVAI

Tests used:
Type in all cases: biochemical
PDGFR-β kinase = PDGFR-β kinase (Homo sapiens (Human), UniProt P09619); assay: PDGFR-β kinase inhibition
Thymidylate synthase [1] = biological target: Thymidylate synthase (Toxoplasma gondii, UniProt Q07422); assay: Thymidylate synthase inhibition, Toxo; conditions: Toxo TS
Thymidylate synthase [2] = biological target: Thymidylate synthase (Escherichia coli (strain K12), UniProt P0A884); assay: Thymidylate synthase inhibition, E. coli; conditions: E. coli TS

Work on `CN(C)c1ccc(/C=C2/C(=O)Nc3ccccc32)cc1` [DMBI, reference compound] yielded an IC50 (PDGFR-β kinase; Table 1, read-out: PDGFR-β kinase inhibition) of 3.75 µM, an IC50 (PDGFR-β kinase; Table 3, read-out: PDGFR-β kinase) of 3.75 µM and an IC50 (PDGFR-β kinase; Table 5, quantity and unit inferred, read-out: PDGFR-β kinase) of 3.75 µM.
For `Nc1nc2[nH]cc(CCc3ccc(C(=O)N[C@@H](CCC(=O)O)C(=O)O)cc3)c2c(=O)[nH]1` [Pemetrexed], the IC50 (Thymidylate synthase [1]) was 14 µM.
`Cc1nc2ccc(CN(C)c3ccc(C(=O)N[C@@H](CCC(=O)O)C(=O)O)s3)cc2c(=O)[nH]1` [Raltitrexed] gave an IC50 (Thymidylate synthase [1]) of 0.48 µM and an IC50 (Thymidylate synthase [2]) of 2.3 µM.
